# Apparent affinities of Ab-14 variants for a coronavirus HR2 peptide

Target peptide (SARS-CoV-2 spike, HR2 region): PDVDLGDISGINAS

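Phage display of a naive human antibody library on the peptide gave the parent. Library AAYL49 holds single substitutions and randomly drawn double and triple substitutions in the CDRs. Affinity was read by AlphaSeq, a pooled yeast mating assay with surface-displayed partners. After mating in shaken culture at 30 °C for 16 h, diploids were selected and their barcode pairs sequenced. Scores were corrected for input abundance and mapped to Kd with protein pairs of known affinity run in the same pool. The assay was run in three technical replicates.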

Ab-14 is the parent antibody, in scFv form: VH, then three GGGGS repeats, then VL. The light chain is unchanged in all variants.
VH: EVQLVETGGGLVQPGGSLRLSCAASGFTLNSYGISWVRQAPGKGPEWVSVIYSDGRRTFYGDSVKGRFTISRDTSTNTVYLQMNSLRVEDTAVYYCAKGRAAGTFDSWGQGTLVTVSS
VL: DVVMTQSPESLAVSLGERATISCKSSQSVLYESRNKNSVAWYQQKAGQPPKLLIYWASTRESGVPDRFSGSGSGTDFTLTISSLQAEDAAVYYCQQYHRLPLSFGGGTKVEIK

Changes read parent residue, position, new residue, counted from the first residue of the VH shown.
Values are log10 of the apparent Kd in nM; lower means stronger binding.
Averages over replicates are reported, and they cover detected replicates only.
A pair that was not seen in that replicate is written "nd"; this usually means weak binding, but a binder can also be missed.

{"changes": "G55K/D62F/K65E", "log10 Kd (nM) by replicate": "nd nd nd", "mean log10 Kd (nM)": "nd", "signal with controls": "0/9"}
{"changes": "N30A/Y32W/V64E", "log10 Kd (nM) by replicate": "nd nd nd", "mean log10 Kd (nM)": "nd", "signal with controls": "0/9"}
{"changes": "T28P/F59Q/K65Q", "log10 Kd (nM) by replicate": "3.65 3.22 5.40", "mean log10 Kd (nM)": "4.09", "signal with controls": "8/9 (4.57)"}
{"changes": "G26P/Y52S/F105S", "log10 Kd (nM) by replicate": "2.92 3.63 3.02", "mean log10 Kd (nM)": "3.19", "signal with controls": "0/9"}
{"changes": "R57D/A101C/T104P", "log10 Kd (nM) by replicate": "nd 4.56 nd", "mean log10 Kd (nM)": "4.56", "signal with controls": "5/9 (3.98)"}
{"changes": "T28C/R57H/A102W", "log10 Kd (nM) by replicate": "nd nd nd", "mean log10 Kd (nM)": "nd", "signal with controls": "0/9"}
{"changes": "G33P/F59L/D62Y", "log10 Kd (nM) by replicate": "nd nd nd", "mean log10 Kd (nM)": "nd", "signal with controls": "0/9"}
{"changes": "S31R/G33P/G55W", "log10 Kd (nM) by replicate": "nd nd nd", "mean log10 Kd (nM)": "nd", "signal with controls": "2/9 (4.10)"}
{"changes": "S31Y/S63M/D106W", "log10 Kd (nM) by replicate": "nd nd nd", "mean log10 Kd (nM)": "nd", "signal with controls": "0/9"}
{"changes": "Y60F/K65W/R100G", "log10 Kd (nM) by replicate": "nd nd nd", "mean log10 Kd (nM)": "nd", "signal with controls": "2/9 (3.91)"}
{"changes": "R56L/Y60C/K65Y", "log10 Kd (nM) by replicate": "nd nd 4.48", "mean log10 Kd (nM)": "4.48", "signal with controls": "0/9"}
{"changes": "S31C/Y32V/D106F", "log10 Kd (nM) by replicate": "4.66 nd 3.91", "mean log10 Kd (nM)": "4.29", "signal with controls": "2/9 (4.51)"}
{"changes": "N30V/A101K", "log10 Kd (nM) by replicate": "nd nd nd", "mean log10 Kd (nM)": "nd", "signal with controls": "0/9"}
{"changes": "G33H/G55A/R56S", "log10 Kd (nM) by replicate": "nd nd nd", "mean log10 Kd (nM)": "nd", "signal with controls": "1/9 (2.45)"}
{"changes": "F27T/T104P/F105Y", "log10 Kd (nM) by replicate": "5.24 nd nd", "mean log10 Kd (nM)": "5.24", "signal with controls": "4/9 (3.54)"}
{"changes": "G26Q/Y60G", "log10 Kd (nM) by replicate": "nd nd 4.61", "mean log10 Kd (nM)": "4.61", "signal with controls": "1/9 (3.75)"}
{"changes": "F59T/R100C/F105Q", "log10 Kd (nM) by replicate": "nd nd nd", "mean log10 Kd (nM)": "nd", "signal with controls": "0/9"}
{"changes": "Y32T/V50G/S107H", "log10 Kd (nM) by replicate": "nd nd 3.34", "mean log10 Kd (nM)": "3.34", "signal with controls": "1/9 (4.12)"}

Excerpt, the final 3 entries:

{"changes": "G26Q/Y60G", "log10 Kd (nM) by replicate": "nd nd 4.61", "mean log10 Kd (nM)": "4.61", "signal with controls": "1/9 (3.75)"}
{"changes": "F59T/R100C/F105Q", "log10 Kd (nM) by replicate": "nd nd nd", "mean log10 Kd (nM)": "nd", "signal with controls": "0/9"}
{"changes": "Y32T/V50G/S107H", "log10 Kd (nM) by replicate": "nd nd 3.34", "mean log10 Kd (nM)": "3.34", "signal with controls": "1/9 (4.12)"}

In this assay the parent's reference entry averaged 0.65; its copy inside this library read 4.11 (one replicate of three).
As a blank, each scFv also met three strains without target: over library AAYL49, 15% of these pairings were detected, typically at 4.06 and seldom below 2.83. The control count says in how many pairings with the empty strains this scFv gave a signal, with their mean in brackets.

The measurements come from Engelhart et al. 2022 (doi:10.1038/s41597-022-01779-4) through the FLAb antibody collection.